In the series the test system is O=NO. Nature of the series: cells, lysate or membranes. The conditions noted are these: whole-cell uptake, non-induced cells (no IPTG), pH 9.6, 30 °C, light.

Results on 1 substance are retold here after publication PMC4390861.

For “NitM (SynPCC7002_A0125) (Picosynechococcus sp. PCC 7002)”, the Km is on record as 8 µM.
